The structures appear in SMILES notation. The entries are a selection whose mix differs from that of the whole data set. Activity calls are given as the source filed them.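 How the source made its calls: active means inhibition above the mean inhibition across every tested compound plus 3 SD (cut at about 22% in these data); inactive means the rest.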

Chains of the proteins cited; added tags and fusions are not shown. Lines headed by an entry give the natural chain unless they say otherwise; changes in a name come on top.
UniProt Q00G26: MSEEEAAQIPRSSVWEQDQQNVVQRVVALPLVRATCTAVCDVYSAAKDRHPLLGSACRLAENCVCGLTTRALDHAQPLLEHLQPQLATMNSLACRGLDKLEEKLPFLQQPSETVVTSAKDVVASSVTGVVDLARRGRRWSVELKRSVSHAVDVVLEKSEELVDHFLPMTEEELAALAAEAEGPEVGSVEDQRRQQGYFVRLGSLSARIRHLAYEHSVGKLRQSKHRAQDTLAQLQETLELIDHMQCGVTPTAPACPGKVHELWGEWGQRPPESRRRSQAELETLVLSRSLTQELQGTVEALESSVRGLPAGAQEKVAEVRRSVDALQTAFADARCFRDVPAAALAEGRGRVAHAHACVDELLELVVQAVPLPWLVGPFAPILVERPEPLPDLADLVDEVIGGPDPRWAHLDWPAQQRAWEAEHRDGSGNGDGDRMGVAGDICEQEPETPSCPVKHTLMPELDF
UniProt Q8WTS1: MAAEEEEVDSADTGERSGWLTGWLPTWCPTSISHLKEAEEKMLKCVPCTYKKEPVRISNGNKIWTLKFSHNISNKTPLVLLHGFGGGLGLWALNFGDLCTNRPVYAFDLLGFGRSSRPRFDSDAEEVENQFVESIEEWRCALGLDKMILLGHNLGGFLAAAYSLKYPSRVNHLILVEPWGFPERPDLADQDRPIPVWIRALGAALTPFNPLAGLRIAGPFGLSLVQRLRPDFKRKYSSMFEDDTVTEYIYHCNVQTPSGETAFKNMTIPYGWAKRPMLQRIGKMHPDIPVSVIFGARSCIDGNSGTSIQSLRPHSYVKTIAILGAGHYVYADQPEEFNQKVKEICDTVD

The assay concerns the target Perilipin-5 (Homo sapiens) + 1-acylglycerol-3-phosphate O-acyltransferase ABHD5 (Homo sapiens) (UniProt Q00G26+Q8WTS1). Kind of assay: ABHD5-PLIN5 interaction inhibitors, primary screen, cell lysate, split luciferase complementation, luminescence (AID 602281).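 Further: 0% = DMSO only wells and the 100% control is not disclosed.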 The settings on record: Split G. princeps luciferase complementation, 4 h, at 4 µM, stronger effect = higher value.
In the case of `CN(C)C(=O)OCCc1n(C)cc[n+]1C`, the inhibition is inactive: 1.95%.

As to `CC(C)=N/N=C(\N)N[N+](=O)[O-]`, the inhibition was inactive: 4.31%.

Take `CC(C)c1nc(Nc2ccccc2)n(P(=O)(N(C)C)N(C)C)n1`: the inhibition is inactive: 1.55%.

For the compound `c1cc(-c2nn[nH]n2)ccc1-c1nn[nH]n1`, the inhibition is inactive: 2.77%.

With `CC1CCN(C(=O)Oc2c(Cl)cc(Cl)c3cccnc23)CC1`, the inhibition is inactive: -0.85%.

Turning to `O=P1(N(CCCl)CCCl)OCCCS1` (stereo unspecified), the inhibition was inactive: -2.42%.

`O=C(Nc1cc([As](=O)(O)O)ccc1O)c1ccccc1`: the inhibition was inactive: 2.84%.

With `CC(C)(C)C(=O)NC(Sc1ccncn1)C(Cl)(Cl)Cl` (stereo unspecified), the inhibition is inactive: -1.27%.

On to `O=[N+]([O-])c1ncn(CCn2ncnc2[N+](=O)[O-])n1`, for which the inhibition was inactive: -3.84%.

As for `O=[N+]([O-])c1cccc(NC2=NCC(CBr)S2)c1` (stereo unspecified), the inhibition was inactive: -1.17%.

Regarding `COC(=O)C1(C)COP(=O)(Nc2ccccc2)OC1` (stereo unspecified), the inhibition is inactive: -2.07%.

Regarding `O=C(O)CNc1ccc([As](=O)(O)O)cc1`, the inhibition is inactive: 1.18%.

Regarding `CCCC1OP(N)(=O)OCC1CC` (stereo unspecified), the inhibition is inactive: 1.39%.

On to `O=C(O)c1ccccc1[As](=O)(O)O`, for which the inhibition was inactive: 0.49%.

With `CC(=O)Nc1ccc([As](=O)(O)O)cc1`, the inhibition was inactive: 7.74%.

As to `CN(C)P(=O)(N(C)C)n1c(Nc2ccccc2)nnc1-c1ccccc1`, the inhibition was inactive: -0.06%.

With `O=P(Nc1nc2ccc(Cl)cc2s1)(c1ccccc1)c1ccccc1`, the inhibition was inactive: -3.81%.

For the compound `CN(C(=O)Cc1ccc(Cl)c(Cl)c1)[C@H]1CCCC[C@@H]1N1CCCC1`, the inhibition was inactive: -8.81%.

Regarding `Cc1ccc(NP(=O)(Oc2ccccc2F)Oc2ccccc2F)nc1`, the inhibition was inactive: -5.47%.

With `CCOP(=O)(Nc1ccccc1)OCC`, the inhibition was inactive: -6.3%.

In the case of `Cc1cc(SC(NC(=O)c2ccc(F)cc2)C(Cl)(Cl)Cl)ncn1` (stereo unspecified), the inhibition was inactive: -7.5%.

Turning to `CCN(N=Nc1nonc1N)c1nonc1N`, the inhibition is inactive: 3.64%.

In the case of `Nc1cccc2ccc([As](=O)(O)O)cc12`, the inhibition was inactive: -13.7%.

For the compound `NC(=O)c1cc([N+](=O)[O-])cc([N+](=O)[O-])c1N`, the inhibition is inactive: 2.67%.

Consider `Cc1ccc(N/C(=N/P(=O)(N2CCOCC2)N2CCOCC2)N2CCOCC2)cc1`, for which the inhibition is inactive: -1.94%.

`CN(C(=O)Cc1ccc(Cl)c(Cl)c1)[C@H]1CCCC[C@H]1N1CCCC1`: the inhibition was inactive: 9.41%.

Consider `Cc1ccc(OP(=O)(Nc2nccs2)Oc2ccc(C)cc2)cc1`, for which the inhibition was inactive: -0.41%.

As to `COc1ccccc1OP(=O)(Nc1ccc(C)cn1)Oc1ccccc1OC`, the inhibition is inactive: -6.36%.

Take `Clc1ccc(Cl)c(NC2=NCC(CBr)S2)c1` (stereo unspecified): the inhibition is inactive: -6.52%.

For the compound `CN1CCCC(OC(=O)C(c2ccccc2)c2ccccc2)C1` (stereo unspecified), the inhibition was inactive: 3.69%.

As to `CC(C)CC(=O)NC(Sc1ccc(Cl)cc1)C(Cl)(Cl)Cl` (stereo unspecified), the inhibition is inactive: -4.76%.

Take `Nc1cc(N)c2nonc2c1[N+](=O)[O-]`: the inhibition was inactive: -8.75%.

Regarding `O=C(NC(Sc1ccncn1)C(Cl)(Cl)Cl)c1ccccc1` (stereo unspecified), the inhibition is inactive: -9.06%.

Consider `Oc1ccccc1CNc1ccccn1`, for which the inhibition was inactive: 3.28%.

Turning to `O=[N+]([O-])C1C(O)C(O)C([N+](=O)[O-])C(O)C1O` (stereo unspecified), the inhibition is inactive: -6.86%.

With `CCOc1ccc(C2=NCC(CBr)S2)cc1` (stereo unspecified), the inhibition is inactive: -9.91%.

Take `O=P1(Nc2nc3ccc(Cl)cc3s2)COc2ccccc2O1` (stereo unspecified): the inhibition was inactive: -1.32%.

As for `CCc1cc(O)c([N+](=O)[O-])c(C)c1[N+](=O)[O-]`, the inhibition was inactive: 1.65%.

Consider `CC(C)(C)C(=O)NC(Sc1ccccc1)C(Cl)(Cl)Cl` (stereo unspecified), for which the inhibition was inactive: -0.67%.

Take `COC(=O)C1(C)COP(=O)(NCc2ccccc2)OC1` (stereo unspecified): the inhibition was inactive: -5.75%.

As to `N#C/C(=C\c1ccc(N(CCBr)CCBr)cc1)C(N)=O`, the inhibition was inactive: -2.8%.

As to `CC(=O)c1ccc(N2CC2c2ccncc2)cc1` (stereo unspecified), the inhibition is inactive: -3.79%.

Consider `C[C@H]1OP(=O)(Oc2ccccc2)C[C@@H]2O[C@@H]21` (stereo partly specified), for which the inhibition is inactive: 6.28%.

For `Cc1ccccc1CN(C)C(=O)COC(=O)C(O)(c1ccccc1)c1ccccc1`, the inhibition was inactive: -11.7%.

Consider `CC(=O)Nc1ccc(Oc2c([N+](=O)[O-])cc([N+](=O)[O-])cc2[N+](=O)[O-])cc1`, for which the inhibition is inactive: 1.26%.

Take `CC(=O)Nc1ccc([As](=O)(O)O)c(O)c1`: the inhibition was inactive: 5.35%.

As for `O=C(NC1CCS(=O)(=O)C1)NP(=S)(Oc1ccccc1)Oc1ccccc1` (stereo unspecified), the inhibition was inactive: -10.1%.

For `CCNC(=S)/N=C(\N)N[N+](=O)[O-]`, the inhibition was inactive: -7.83%.

`Cc1ccc(NP(=O)(Oc2cccc(C)c2)Oc2cccc(C)c2)nc1`: the inhibition is inactive: -2.86%.

For the compound `c1ccc(-c2nn[nH]n2)c(-c2nn[nH]n2)c1`, the inhibition is inactive: 0.11%.

Turning to `O=P1(N(CCCl)CCCl)OCCC2CCCCN21` (stereo unspecified), the inhibition was inactive: -6.7%.

With `CC(=O)NC(SC(=S)N(CC(C)C)CC(C)C)C(Cl)(Cl)Cl` (stereo unspecified), the inhibition was inactive: -2.37%.

For `Cc1ccc(OP(=O)(Nc2ccccn2)Oc2ccc(C)cc2)cc1`, the inhibition was inactive: 0.93%.

In the case of `COC(=O)c1cc2c(s1)N=C(c1ccccc1)N(C)P2(=O)N1CCOCC1` (stereo unspecified), the inhibition was inactive: -0.42%.

As to `CCC(=O)N1C2C3N(C(=O)CC)C1C1N(C(=O)CC)C(C(N1C(=O)CC)N3C(=O)CC)N2C(=O)CC`, the inhibition is inactive: -0.3%.

With `O=C(OC1CN2CCC1CC2)c1ccccc1` (stereo unspecified), the inhibition was inactive: -7.34%.

With `CN(C)C(=O)Oc1noc2ccccc12`, the inhibition was inactive: -5.73%.

Take `O=c1c2cc([N+](=O)[O-])ccc2[nH]c2c([N+](=O)[O-])cc([N+](=O)[O-])cc12`: the inhibition was inactive: -9.45%.

`Cc1ccccc1OP(=O)(Nc1ccccn1)Oc1ccccc1C`: the inhibition is inactive: -1.65%.

On to `CC(NC(=O)COC(=O)C(O)(c1ccccc1)c1ccccc1)c1ccccc1` (stereo unspecified), for which the inhibition is inactive: 2.92%.

For the compound `Nc1ccc(CCCCOc2ccccc2)cc1`, the inhibition was inactive: 0.93%.

With `COc1ccc(N)c([N+](=O)[O-])c1[N+](=O)[O-]`, the inhibition is inactive: 9.54%.

Take `CN(C)C1(CNC(=O)c2ccc(Cl)c(S(N)(=O)=O)c2)CCCCC1`: the inhibition was inactive: -0.51%.

With `O=P(Nc1ccccn1)(c1ccc(Br)cc1)c1ccc(Br)cc1`, the inhibition is inactive: -3.58%.

Turning to `C[C@H]1OP(=O)(Oc2ccccc2)[C@H](O)[C@H](O)[C@H]1N=[N+]=[N-]` (stereo partly specified), the inhibition was inactive: -3.47%.

For `O=P(Nc1nc2ccccc2s1)(c1ccccc1)c1ccccc1`, the inhibition is inactive: -8.39%.

Regarding `CC(=O)NC(SC(=S)N(C)C)C(Cl)(Cl)Cl` (stereo unspecified), the inhibition is inactive: 4.29%.

`O=[N+]([O-])c1ncn(CCn2cnc([N+](=O)[O-])n2)n1`: the inhibition was inactive: 2.29%.

For the compound `O=[N+]([O-])c1ccc(O)c(/C=N/Nc2ccc([N+](=O)[O-])cc2[N+](=O)[O-])c1`, the inhibition is inactive: 1.87%.

In the case of `O=[As](O)(c1ccccc1)c1ccc(O)cc1`, the inhibition was inactive: -1.31%.

Turning to `Nc1ccc([As](=O)(O)c2ccc([N+](=O)[O-])cc2)cc1`, the inhibition was inactive: 2.58%.

With `C(Cc1nn[nH]n1)Cc1nn[nH]n1`, the inhibition was inactive: 0%.

In the case of `O=C(OC1CN2CCC1CC2)c1cccc(Cl)c1` (stereo unspecified), the inhibition was inactive: -2.1%.

For the compound `O=P(Nc1nccs1)(c1ccccc1)c1ccccc1`, the inhibition was inactive: -3%.

As for `CC(C)C(=O)NC(Sc1ccccc1)C(Cl)(Cl)Cl` (stereo unspecified), the inhibition was inactive: -2.92%.

As for `c1nnnn1CCn1cnnn1`, the inhibition is inactive: 2.5%.

The values are drawn from PubChem BioAssay AID602281 (The Scripps Research Institute Molecular Screening Center, 2012).
